Data as given in patent US20110150767A1, “ALPHA-SUBSTITUTED AND ALPHA-UNSUBSTITUTED AROMATIC AMINO ACID DERIVATIVES AND COMPOSITIONS THEREOF FOR USE TO TREAT, DIAGNOSE, OR MONITOR A MEDICAL CONDITION” (priority 2009, published 2011).

The chains behind the UniProt entries cited, without tags or fusion partners. Residues count along the entry.
UniProt Q9UHI5, whole entry: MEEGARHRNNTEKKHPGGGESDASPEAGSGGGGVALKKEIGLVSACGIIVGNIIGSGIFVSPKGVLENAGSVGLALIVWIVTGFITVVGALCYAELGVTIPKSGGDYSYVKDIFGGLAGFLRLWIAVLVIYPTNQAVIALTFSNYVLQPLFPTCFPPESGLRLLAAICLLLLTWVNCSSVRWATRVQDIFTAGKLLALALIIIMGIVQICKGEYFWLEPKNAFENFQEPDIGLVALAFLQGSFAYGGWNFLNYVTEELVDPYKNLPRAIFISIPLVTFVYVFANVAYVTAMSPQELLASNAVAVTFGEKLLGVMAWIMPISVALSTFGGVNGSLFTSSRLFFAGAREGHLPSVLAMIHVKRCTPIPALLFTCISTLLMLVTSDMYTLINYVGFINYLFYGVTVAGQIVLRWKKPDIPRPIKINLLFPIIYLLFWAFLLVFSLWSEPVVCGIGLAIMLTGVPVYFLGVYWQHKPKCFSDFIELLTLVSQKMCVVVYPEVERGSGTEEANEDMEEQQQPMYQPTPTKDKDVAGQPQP
UniProt Q01650, whole entry: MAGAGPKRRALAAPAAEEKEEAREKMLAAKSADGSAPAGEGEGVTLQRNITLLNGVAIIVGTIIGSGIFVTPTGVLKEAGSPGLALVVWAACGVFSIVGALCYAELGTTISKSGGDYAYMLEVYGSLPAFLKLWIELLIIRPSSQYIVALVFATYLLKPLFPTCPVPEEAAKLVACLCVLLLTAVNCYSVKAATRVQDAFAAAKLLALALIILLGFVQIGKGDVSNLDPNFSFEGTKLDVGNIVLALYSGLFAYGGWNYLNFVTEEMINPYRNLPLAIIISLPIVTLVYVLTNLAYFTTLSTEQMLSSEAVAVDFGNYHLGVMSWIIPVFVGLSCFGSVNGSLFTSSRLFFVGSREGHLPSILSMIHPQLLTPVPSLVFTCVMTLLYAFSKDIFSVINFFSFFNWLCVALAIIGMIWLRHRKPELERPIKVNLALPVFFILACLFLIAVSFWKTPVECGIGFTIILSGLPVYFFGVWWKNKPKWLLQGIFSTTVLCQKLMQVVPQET
UniProt P08195, 102-630 partner: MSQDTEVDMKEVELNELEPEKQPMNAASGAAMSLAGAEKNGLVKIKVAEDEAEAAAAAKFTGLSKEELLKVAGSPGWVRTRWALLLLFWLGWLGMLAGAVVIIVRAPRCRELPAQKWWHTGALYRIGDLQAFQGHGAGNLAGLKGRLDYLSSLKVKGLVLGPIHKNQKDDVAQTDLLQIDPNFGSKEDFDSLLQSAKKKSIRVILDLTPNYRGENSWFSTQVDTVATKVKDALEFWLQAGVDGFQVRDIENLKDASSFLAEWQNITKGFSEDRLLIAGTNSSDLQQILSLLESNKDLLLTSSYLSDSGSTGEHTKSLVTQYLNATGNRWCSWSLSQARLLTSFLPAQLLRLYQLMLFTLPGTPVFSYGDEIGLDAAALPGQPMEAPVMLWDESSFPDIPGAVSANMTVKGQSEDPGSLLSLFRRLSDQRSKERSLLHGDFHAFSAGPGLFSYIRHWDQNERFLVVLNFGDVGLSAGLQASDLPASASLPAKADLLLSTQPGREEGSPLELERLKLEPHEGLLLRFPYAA

Columns and labels:
[1] = target: human L-type amino acid transporter 2 (LAT2; S2-hLAT2 cells) (Homo sapiens, UniProt Q9UHI5); experiment: Inhibition of L-[14C]leucine uptake in S2-LAT2 cells; details: read-out: IC50 (μM) S2-LAT2, inhibition of 1.0 μM L-[14C]leucine uptake, 1.0 min, 37° C., NI = no inhibition at 100 μM, tested form: HCl
Experimental: (§1) The establishment and characterization of mammalian cell lines expressing human L-type amino acid transporterss (i.e. S2-hLAT1 and S2-hLAT2) has been previously described (Morimoto et al., Journal of Pharmacological Sciences, 2008, 108, 505-516).
(§2) General test procedures are as follows: All test compounds were dissolved in dimethyl sulfoxide (DMSO) to prepare stock solutions at the concentrations of 0.05, 0.5, 5.0 and 50 mM; next, these stock solutions were used and diluted with uptake solution to make final test concentrations of 0.10, 1.00, 10.0 and 100 μM, respectively. Therefore, all compounds used for uptake experiment were in uptake solution containing 0.2% DMSO; experiments are performed in triplicate for each concentration. For control uptake, only DMSO was added into the uptake solution to a final concentration of 0.2%.
(§3) S2-LAT1 and S2-LAT2 cells were seeded (1.3×10^5 cells/well) into 24-well plates and cultured at 33° C. (5% CO2) for 2-3 days until confluent (90%-100% confluence). Uptake experiments were performed at 37° C. The culture medium was removed and washed 3 times with uptake solution (37° C.; Hank's Na^+ free buffer consisting of 125 mM choline chloride, 4.8 mM KCl, 1.3 mM CaCl2, 1.2 mM MgCl2, 25.0 mM HEPES, and 5.0 mM Tris, pH 7.4, supplemented with D-glucose (5.6 mM). The cells were equilibrated in uptake solution (300 μL; 37° C.) for 12 min. The equilibrated solution was removed and uptake solution containing radio-labeled compound (1.0 μM L-[^14C] Leucine) with or without test compound (300 μL) was added to the cells (1.0 min). The test solution was removed and the cells washed 3 times with ice-cold uptake solution. The cells are then solubilized with 0.1N NaOH (0.5 mL) and transferred to scintillation vials. Liquid scintillation fluid (3.0 mL; aquasol-2) was added, mixed and substrate accumulation was measured by counting radioactivity via liquid scintillation counting (LSC; LSC6100, Aloka, Tokyo). The uptake value and % of inhibition were calculated to afford IC50 values.

[2] = target: human L-type amino acid transporter 1 (LAT1; S2-hLAT1 cells) (Homo sapiens, UniProt Q01650); experiment: Inhibition of L-[14C]leucine uptake in S2-LAT1 cells; details: read-out: IC50 (μM) S2-LAT1, inhibition of 1.0 μM L-[14C]leucine uptake, 1.0 min, 37° C., NI = no inhibition at 100 μM, tested form: HCl
Experimental: as §1, §2, §3

IC50 [1] | IC50 [2] | Compound
> 100 µM | > 100 µM | N[C@@H](Cc1cc(Cl)c(OCCc2ccccc2C(F)(F)F)c(Cl)c1)C(=O)O
23.1 µM | 62.4 µM | N[C@@H](Cc1cc(Cl)c(OCc2ccc([N+](=O)[O-])cc2)c(Cl)c1)C(=O)O
86.7 µM | 4.2 µM | COc1cccc(CCOc2c(Cl)cc(C[C@H](N)C(=O)O)cc2Cl)c1
> 100 µM | > 100 µM | N[C@@H](Cc1cc(Cl)c(OCc2ccncc2)c(Cl)c1)C(=O)O
> 100 µM | 1.3 µM | N[C@@H](Cc1cc(Cl)c(OCCc2ccc(C(F)(F)F)cc2)c(Cl)c1)C(=O)O
> 100 µM | 19.9 µM | N[C@@H](Cc1cc(Br)c(OCCc2ccccc2)c(Br)c1)C(=O)O
> 100 µM | > 100 µM | N[C@@H](Cc1cc(Cl)c(OCc2ccc(F)c(F)c2)c(Cl)c1)C(=O)O
19 µM | 10.2 µM | N[C@@H](Cc1cc(Cl)c(OCc2ccc(F)cc2)c(Cl)c1)C(=O)O

Second part, the molecule before the results:

Compound | IC50 [1] | IC50 [2]
N[C@@H](Cc1cc(Br)c(OCc2ccc3c(c2)OCO3)c(Br)c1)C(=O)O | > 100 µM | 22 µM
N[C@@H](Cc1cc(Br)c(OCCc2ccc([N+](=O)[O-])cc2)c(Br)c1)C(=O)O | > 100 µM | 19.5 µM
COc1ccccc1CCOc1c(I)cc(C[C@H](N)C(=O)O)cc1I | > 100 µM | 3.9 µM
N[C@@H](Cc1cc(Br)c(OCc2ccncc2)c(Br)c1)C(=O)O | > 100 µM | > 100 µM
COc1ccc(COc2c(Br)cc(C[C@H](N)C(=O)O)cc2Br)c(OC)c1OC | > 100 µM | 12.1 µM
COc1cc(Cl)ccc1COc1c(Br)cc(C[C@H](N)C(=O)O)cc1Br | > 100 µM | 6.7 µM
COc1ccc(COc2c(Br)cc(C[C@H](N)C(=O)O)cc2Br)cc1[N+](=O)[O-] | > 100 µM | > 100 µM
N[C@@H](Cc1cc(I)c(OCc2ccc(C(F)(F)F)cc2)c(I)c1)C(=O)O | 7.7 µM | 84.7 µM
COc1cccc(COc2c(I)cc(C[C@H](N)C(=O)O)cc2I)c1OC | > 100 µM | 52.8 µM
COc1ccc(COc2c(Br)cc(C[C@H](N)C(=O)O)cc2Br)c(OC)c1 | 3.3 µM | 0.42 µM
N[C@@H](Cc1cc(I)c(OCc2cc(C(F)(F)F)ccc2C(F)(F)F)c(I)c1)C(=O)O | > 100 µM | > 100 µM
COc1ccc(COc2c(Br)cc(C[C@H](N)C(=O)O)cc2Br)c(C)c1C | > 100 µM | 18.1 µM
N[C@@H](Cc1cc(I)c(OCc2ccccc2C(F)(F)F)c(I)c1)C(=O)O | > 100 µM | 122 µM
N[C@@H](Cc1cc(I)c(OCCc2ccc(F)cc2)c(I)c1)C(=O)O | > 100 µM | > 100 µM
N[C@@H](Cc1cc(Br)c(OCc2cccnc2)c(Br)c1)C(=O)O | > 100 µM | > 100 µM
COc1cc(COc2c(Br)cc(C[C@H](N)C(=O)O)cc2Br)cc(OC)c1OC | > 100 µM | 9.4 µM
